What was measured:
[1] = target: T1, recombinant mouse MIF (rmMIF) (Mus musculus, UniProt P34884); experiment: Surface plasmon resonance, binding to immobilized mouse MIF; details: SPR, mouse MIF immobilised on CM5 chip, 1:1 Langmuir model
T1 construct: purchased R&D systems
Protocol: (§1) Surface plasmon resonance (SPR) experiments were performed on a BIAcore T200 system (GE Healthcare). Recombinant mouse MIF (rmMIF) or rhMIF (R&D systems) was immobilized on a CM5 chip (GE Healthcare). Briefly, the carboxylated dextran matrix was activated by injection of 0.2 M N-ethyl-N′-(3-diethylaminopropyl) carbodiimide (EDC) and 0.05 M N-hydroxysuccinimide (NHS) at a flow rate of 5 μl/min for 7 min. A rmMIF solution of 5 μg/ml prepared in coupling buffer (50 mM sodium acetate pH 4.0) was subsequently injected until 200 R.U. was immobilised. Next, the surface immobilisation was blocked by injection of 1 M ethanolamine hydrochloride for 7 min. As a reference, the surface in another flow cell was used and treated only with EDC, NHS, and ethanolamine. Data for the rmMIF-ISVD interaction were collected in the format of a kinetic titration (27). Sensorgrams for the anti-mMIF ISVDs/ISVD-constructs were collected at five different concentrations (½ serial dilution starting from 100, 150, 200 or 750 nM) plus a 0 concentration (injection of running buffer, i.e. HBS [10 mM Hepes (pH 7.5), 150 mM NaCl, 3.5 mM EDTA, 0.005% (v/v) Tween-20]) at a flow rate of 30 μl/min and a data collection rate of 10 Hz. Analyte injections were performed with association phases of 180 s and a dissociation phase of 600 s. This was followed by 5 pulses of 15 μl regeneration buffer (HBS+100 mM NaOH). Prior to data analysis, reference and zero concentration data were subtracted from the sensorgrams. The data were analyzed with a 1:1 Langmuir binding model (27). Data for the rhMIF-ISVD interaction were collected as described elsewhere (28) and analyzed with a 1:1 Langmuir binding model.

[2] = target: T2, rhMIF (recombinant human MIF) (Homo sapiens, UniProt P14174); experiment: Surface plasmon resonance, binding to human MIF; details: SPR, 1:1 Langmuir model
T2 construct: recombinant human MIF^2-115 (rhMIF, R&D Systems); purchased R&D systems
T2 sequence (P14174 2-115): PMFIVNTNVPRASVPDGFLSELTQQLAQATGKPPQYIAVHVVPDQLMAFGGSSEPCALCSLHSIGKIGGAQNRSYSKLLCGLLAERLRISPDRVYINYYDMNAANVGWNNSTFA
Protocol: as §1

[3] = system: LPS stimulated RAW264.7 macrophages; experiment: TNF production by LPS stimulated RAW264.7 macrophages; format: cell-based, murine; details: RAW264.7, LPS, ISVD at a concentration of 0.5-1.67 μM
Protocol: FIG. 1: Inhibition of MIF's biological activities by anti-MIF ISVDs (indicated as “Nb”). […] Briefly, cells were treated with 500 nM of each anti-MIF ISVD and an irrelevant ISVD was used as a negative control. After 18 hours of incubation, cell culture supernatants were collected for the determination of TNF concentration. Data is shown as the mean±SEM. Statistical analysis was performed by comparing TNF levels of ISVD-treated LPS-stimulated cells to levels of untreated LPS-stimulated cells. The dotted line represents TNF levels (cut-off level) of mice stimulated with LPS alone. D) Inhibition of MIF D-dopachrome tautomerase activity by anti-MIF ISVDs. ISO-1 was used as positive control. The activity was determined by the semi-continuous reduction in signal (tautomerization) measured at OD450nm in the presence and absence of anti-MIF ISVDs. The % activity was expressed in relationship to the tautomerase activity of rmMIF alone. The dotted line represents 100% activity (i.e. when only MIF was used). […]
Experiments were performed using either the human monocytic cell line THP-1 (ATCC), the murine macrophage cell line RAW264.7 (ATCC) or human peripheral blood monocytic cells (PBMC's) ex vivo peritoneal exudates cells (PECs). […] Finally, the cells were resuspended in ME medium, counted and brought at a concentration of 5*10^5/ml (stock solution). […]

Kon [1]: 0.86 10^5M^−1s^−1 | Kon [2]: 0.98 10^5M^−1s^−1
B1: E10: anti-MIF immunoglobulin single variable domain (Nanobody), Family VII, SEQ ID NO: 1 (protein)
VHH: EVQLVESGGGSVQAGDSLRLSCAASGRTLSNSIMGWFRQAPGKEREFVANINWSGTSRLYADSVKGRFTISRDNTKSTVYLQMNSLKPEDTAIYYCAARSSTMSATDYWGQGTQVTVSS
modifications: Nanobody Sequence
TNF reduction [3]: 50%
